US9493432B2, “Cyclopentylbenzamide derivatives and their use for the treatment of psychotic and cognitive disorders” (Takeda Pharmaceutical Company Limited, priority 2013, dated 2016)

The chains behind the UniProt entries cited, without tags or fusion partners.
UniProt O43613, whole entry: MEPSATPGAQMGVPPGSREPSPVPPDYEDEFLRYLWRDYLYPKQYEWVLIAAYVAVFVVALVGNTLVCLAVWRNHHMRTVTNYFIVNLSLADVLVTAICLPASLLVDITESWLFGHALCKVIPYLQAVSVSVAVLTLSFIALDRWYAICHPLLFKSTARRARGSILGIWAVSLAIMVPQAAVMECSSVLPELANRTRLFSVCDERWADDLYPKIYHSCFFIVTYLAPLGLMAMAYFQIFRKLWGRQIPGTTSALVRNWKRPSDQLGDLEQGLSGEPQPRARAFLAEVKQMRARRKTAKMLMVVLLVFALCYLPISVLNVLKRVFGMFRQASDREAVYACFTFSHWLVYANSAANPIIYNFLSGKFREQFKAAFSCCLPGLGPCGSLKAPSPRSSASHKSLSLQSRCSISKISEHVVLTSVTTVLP

Target: human orexin receptor 1 (Homo sapiens (Human), UniProt O43613)
Test: Orexin antagonist activity, intracellular calcium FLIPR assay (orexin receptor 1)
Format: cell-based
Details: RBL-2H3 cells stably expressing human orexin receptor 1; Ca2+ dye FLIPR; compound 15 minutes before orexin-A at approximately 80% maximal response; read-out: Human Orexin1R IC50
Description: Orexin antagonist activity was determined by measuring changes in intracellular calcium levels using a Ca^2+ sensitive fluorescent dye. The changes in fluorescent signal were monitored by Fluorescent Imaging Plate Reader (FLIPR™) technology available from Molecular Devices, LLC, U.S.A. Orexin mediated increases in intracellular Ca^2+ concentration were readily detected upon activation with orexin-A. Twenty-four hours prior to the assay, RBL-2H3 cells stably expressing either human orexin receptor 1 or human orexin receptor 2 were seeded in cell culture medium in black, clear-bottom 384-well plates (commercially available from Corning Inc., U.S.A.) and grown overnight at 37° C., 5% CO2. On the day of the assay, cell culture media was removed and cells were loaded with Calcium 5 Dye (commercially sold by Molecular Devices, LLC, U.S.A.) for 1 hour at 37° C., 5% CO2. Test compounds (at 10 point half log concentration response curves from 10 μM) were added to cells for 15 minutes prior to the addition of orexin-A to all wells, to achieve a final concentration that produces approximately an 80% maximal response. The IC50 values were determined from ten point concentration response curves. Curves were generated using the average of two wells for each data point.

Row | Structure (SMILES) | IC50
1 | O=C(NC1CC(F)(F)CC1Nc1nc2ccc(Cl)cc2s1)c1ccccc1-n1nccn1 (single isomer, unassigned) [Example 105, N-{2-[(6-Chloro-1,3-benzothiazol-2-yl)amino]-4,4-difluorocyclopentyl}-2-(2H-1,2,3-triazol-2-yl)benzamide] | 17 nM
2 | O=C(NC1CC(F)(F)CC1Nc1nc2ccc(Cl)cc2s1)c1ccccc1-n1nccn1 (single isomer, unassigned) [Example 106, N-{2-[(6-Chloro-1,3-benzothiazol-2-yl)amino]-4,4-difluorocyclopentyl}-2-(2H-1,2,3-triazol-2-yl)benzamide] | 564 nM
3 | O=C(N[C@H]1CCC[C@@H]1Nc1nc2ccc(Cl)cc2s1)c1ccccc1-n1nccn1 [Example 91, N-[(1S,2S)-2-[(6-Chloro-1,3-benzothiazol-2-yl)amino]cyclopentyl]-2-(2H-1,2,3-triazol-2-yl)benzamide] | 18 nM
